For test [1], the target named is T1, Protein arginine N-methyltransferase 6 (Homo sapiens, UniProt Q96LA8).
The target in test [2] is T1, Protein arginine N-methyltransferase 6. The source holds these as a separate data set.
Test [3] shares this target. Briefly: biochemical.

By UniProt entry, the sequences of proteins in these tests, tags left out.
UniProt Q96LA8, whole entry: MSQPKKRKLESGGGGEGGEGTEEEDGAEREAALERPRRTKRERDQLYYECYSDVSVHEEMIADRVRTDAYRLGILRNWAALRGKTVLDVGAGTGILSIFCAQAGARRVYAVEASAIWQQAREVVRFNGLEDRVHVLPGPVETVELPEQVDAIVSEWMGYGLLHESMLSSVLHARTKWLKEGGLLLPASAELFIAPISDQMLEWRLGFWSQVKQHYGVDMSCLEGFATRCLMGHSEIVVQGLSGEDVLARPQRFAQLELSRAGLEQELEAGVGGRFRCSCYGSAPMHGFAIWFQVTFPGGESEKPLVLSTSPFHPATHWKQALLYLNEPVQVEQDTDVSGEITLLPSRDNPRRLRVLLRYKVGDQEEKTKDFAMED

As for `Cc1cc(C)cc([C@@H]2c3cc(C)ccc3NC(=O)CN2C(=O)c2ccc(Br)s2)c1`, the 50% inhibitory concentration (IC50) in test [1] turned out to be 0.9 µM; in test [2], 0.6 µM; in test [3], 0.077 µM.

For `Cc1cc(C)cc(C2c3cc(C)ccc3NC(=O)CN2C(=O)c2ccc(Br)s2)c1` (racemic), in test [3], inhibition was half-maximal at 0.214 µM (IC50).

(Values after ChEMBL document CHEMBL5030506 (J Med Chem, 2021).)
